The source of these data is ChEMBL document CHEMBL5500417, “Discovery of Novel 2-Oxoacetamide Derivatives as B3GAT3 Inhibitors for the Treatment of Hepatocellular Carcinoma” (J Med Chem, 2024).

One experiment has as its system HCCLM3. Put plainly: cells. As to conditions: Homo sapiens, HCCLM3, 72 h.
Another experiment concerns MHCC97H. The experiment in a line: cells. The note with it: Homo sapiens, 72 h.
The target in experiment [1] is T1, Galactosylgalactosylxylosylprotein 3-beta-glucuronosyltransferase 3 (Homo sapiens) (UniProt O94766).
T1 sequence (whole entry): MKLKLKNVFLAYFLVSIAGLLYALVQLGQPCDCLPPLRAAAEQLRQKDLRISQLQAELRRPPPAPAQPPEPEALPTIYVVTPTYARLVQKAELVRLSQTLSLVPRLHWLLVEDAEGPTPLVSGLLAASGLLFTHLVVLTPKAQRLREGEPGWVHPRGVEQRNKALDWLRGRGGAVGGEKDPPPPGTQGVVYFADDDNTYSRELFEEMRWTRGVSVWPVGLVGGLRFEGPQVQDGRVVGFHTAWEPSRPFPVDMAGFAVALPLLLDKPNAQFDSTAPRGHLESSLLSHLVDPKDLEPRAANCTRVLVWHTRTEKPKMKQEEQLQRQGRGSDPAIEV
The note with it: MHCC97H, time 3.0 hrs.

Experiment [2] concerns the target T1, Galactosylgalactosylxylosylprotein 3-beta-glucuronosyltransferase 3 (Homo sapiens). The note with it: HCCLM3, time 3.0 hrs.

As usually defined, the IC50 is the concentration that inhibits the measured activity by half. For `O=C(Nc1nc2c(ccc3ccccc32)s1)C(=O)Nc1nc2c(ccc3ccccc32)s1`, the IC50 with HCCLM3 was 43.1 µM; in the experiment with MHCC97H, 6.19 µM.
For `COC(=O)c1ccc2[nH]cc(C(=O)C(=O)NC3CCN(c4ccc(C)cc4Cl)C3=O)c2c1` (centres undefined), the values for the Tm in experiment [1] and in experiment [2] were 52 °C and more than 61 °C, respectively.
